Test results published in paper PMC12135063, “Pharmaceutical Analysis of Protein–Peptide Coformulations and the Influence of Polysorbates” (Molecular Pharmaceutics, 2025).

Molecular target: T1, HSA (Homo sapiens, UniProt P02768)
T1 construct: albumin from human serum (HSA) (>96%), was purchased from Sigma-Aldrich UK; purchased Sigma-Aldrich UK; host or cells: human serum
Assay: DSC thermal stability of HSA with MEDI7219 and polysorbates
Type: physicochemical
Conditions: DSC of 10 mg/mL HSA, no polysorbate, MEDI7219 10 mg/mL where ligand
Method: Lyophilized protein and MEDI7219 were rehydrated by adding buffer to achieve a concentration of 30 mg/mL, then stored at 5 °C for 72 h or until fully dissolved. Polysorbate solutions were prepared at 3 times higher than the desired concentration to account for dilution in the formulation after mixing with MEDI7219. Polysorbate concentrations in experiments were 0.1× and 1× each polysorbates respective CMC. Samples were produced by adding equal volumes of each component to provide the desired formulation. DSC experiments were conducted using a Microcal PEAQ-DSC instrument from Malvern Panalytical. Prior to each experiment, DSC cells were washed with 2% Decon 90 detergent and then rinsed with ultrapure water. The DSC capillary cell volume was 250 μL for both reference and sample cells; for each experiment, the reference cell contained buffer solution. The sample cell contained the prepared formulation of 10 mg/mL HSA, 10 mg/mL MEDI7219, and the polysorbate concentration being investigated. The scanning temperature range was set at 20–105 °C at a rate of 60 °C/h with a total scan time of 85 min and repeated in triplicate. A reference scan of the buffer solution was conducted under identical conditions and subtracted from each run. Data were analyzed using MicroCal PEAQ-DSC Analysis Software v1.64.

In the case of “HSA: albumin from human serum, model protein, purchased from Sigma-Aldrich”, the “Tm 1” value is reported as 63.9 °C and 63.9 (±1.2) °C, the “Tm 2” value is reported as 76.3 °C and 76.3 (±0.1) °C and the total area (20–105 °C at 60 °C/h) is reported as 722 (±43.5) kJ/mol.

Where “and” joins values, the source holds several entries; their conditions need not be identical. Identical values can stand only once.
